Assay [1] concerns the target Peroxisome proliferator-activated receptor delta (Homo sapiens) (UniProt Q03181). In words: qHTS assay for small molecule agonists of peroxisome proliferator-activated receptor delta signaling (AID 588534; calls by dose curve;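 further: 0% = DMSO basal wells and 100% = positive control agonist at 10 µM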). The note with it: HEK293T PPARdelta-UAS-bla, beta-lactamase ratio, 18 h; at 76.7 µM (top of the series). A general note: Quantitative high-throughput screening tests each substance at several concentrations.

Amino acid sequences for entries named in this document (tags omitted). A change or cut given only in a name is not applied to a line headed by its entry.
UniProt Q03181: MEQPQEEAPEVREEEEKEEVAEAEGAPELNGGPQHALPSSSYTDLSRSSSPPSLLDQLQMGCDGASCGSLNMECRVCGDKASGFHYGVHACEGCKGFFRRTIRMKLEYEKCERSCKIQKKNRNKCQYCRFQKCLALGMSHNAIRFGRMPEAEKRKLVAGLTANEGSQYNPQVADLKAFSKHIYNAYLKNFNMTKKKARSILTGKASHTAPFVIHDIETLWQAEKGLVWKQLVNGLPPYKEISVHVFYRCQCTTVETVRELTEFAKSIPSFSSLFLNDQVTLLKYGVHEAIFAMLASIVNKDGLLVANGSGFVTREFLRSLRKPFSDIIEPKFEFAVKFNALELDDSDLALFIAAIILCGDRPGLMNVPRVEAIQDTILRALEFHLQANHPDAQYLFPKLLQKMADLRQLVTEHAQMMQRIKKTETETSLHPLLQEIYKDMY
UniProt P83916, whole entry, looked up: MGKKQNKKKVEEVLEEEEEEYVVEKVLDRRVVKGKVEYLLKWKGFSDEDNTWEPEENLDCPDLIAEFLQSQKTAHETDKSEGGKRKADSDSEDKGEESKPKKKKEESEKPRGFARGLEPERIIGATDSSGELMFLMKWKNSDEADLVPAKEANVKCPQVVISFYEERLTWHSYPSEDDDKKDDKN
UniProt O94782: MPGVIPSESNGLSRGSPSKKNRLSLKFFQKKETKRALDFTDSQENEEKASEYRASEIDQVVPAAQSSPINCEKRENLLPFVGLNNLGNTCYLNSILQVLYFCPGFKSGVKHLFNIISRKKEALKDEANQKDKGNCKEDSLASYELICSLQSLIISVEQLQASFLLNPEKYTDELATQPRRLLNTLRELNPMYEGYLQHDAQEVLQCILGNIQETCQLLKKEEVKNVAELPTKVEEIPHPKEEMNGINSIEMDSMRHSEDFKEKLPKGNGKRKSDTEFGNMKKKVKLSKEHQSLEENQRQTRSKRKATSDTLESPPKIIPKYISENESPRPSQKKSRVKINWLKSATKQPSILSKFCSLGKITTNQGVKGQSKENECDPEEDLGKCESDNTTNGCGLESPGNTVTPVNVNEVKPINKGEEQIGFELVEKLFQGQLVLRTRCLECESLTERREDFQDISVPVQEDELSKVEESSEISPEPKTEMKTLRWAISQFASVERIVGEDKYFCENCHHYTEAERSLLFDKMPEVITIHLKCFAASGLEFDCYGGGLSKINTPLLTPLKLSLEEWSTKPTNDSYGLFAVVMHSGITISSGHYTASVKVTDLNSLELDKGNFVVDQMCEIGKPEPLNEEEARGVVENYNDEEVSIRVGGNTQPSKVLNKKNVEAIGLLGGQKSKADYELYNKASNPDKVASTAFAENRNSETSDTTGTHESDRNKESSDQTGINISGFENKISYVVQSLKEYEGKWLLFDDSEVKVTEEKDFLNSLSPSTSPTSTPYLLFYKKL
UniProt P10275: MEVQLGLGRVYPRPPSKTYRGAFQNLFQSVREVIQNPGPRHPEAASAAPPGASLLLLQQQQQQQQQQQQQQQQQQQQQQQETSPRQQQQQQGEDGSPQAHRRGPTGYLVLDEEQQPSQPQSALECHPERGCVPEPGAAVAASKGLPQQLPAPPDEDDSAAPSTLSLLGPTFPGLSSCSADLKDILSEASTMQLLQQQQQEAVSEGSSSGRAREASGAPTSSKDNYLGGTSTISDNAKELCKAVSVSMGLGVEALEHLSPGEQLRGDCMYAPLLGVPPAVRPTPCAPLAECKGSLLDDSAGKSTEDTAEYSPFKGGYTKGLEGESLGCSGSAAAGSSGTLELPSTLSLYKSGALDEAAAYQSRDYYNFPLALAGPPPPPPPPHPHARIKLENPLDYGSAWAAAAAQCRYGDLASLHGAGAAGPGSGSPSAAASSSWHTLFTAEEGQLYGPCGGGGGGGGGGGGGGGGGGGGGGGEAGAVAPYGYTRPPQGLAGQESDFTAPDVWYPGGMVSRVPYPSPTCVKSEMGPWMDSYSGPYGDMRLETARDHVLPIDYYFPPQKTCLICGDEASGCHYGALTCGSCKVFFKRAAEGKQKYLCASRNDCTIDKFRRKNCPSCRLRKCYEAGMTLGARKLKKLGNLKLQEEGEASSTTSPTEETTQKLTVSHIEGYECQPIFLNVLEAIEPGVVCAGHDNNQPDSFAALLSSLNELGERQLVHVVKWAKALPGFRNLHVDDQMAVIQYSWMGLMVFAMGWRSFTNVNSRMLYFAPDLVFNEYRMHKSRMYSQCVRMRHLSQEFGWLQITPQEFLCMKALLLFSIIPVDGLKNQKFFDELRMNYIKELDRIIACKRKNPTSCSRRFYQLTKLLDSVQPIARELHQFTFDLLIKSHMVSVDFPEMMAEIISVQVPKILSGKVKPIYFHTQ
UniProt P08482: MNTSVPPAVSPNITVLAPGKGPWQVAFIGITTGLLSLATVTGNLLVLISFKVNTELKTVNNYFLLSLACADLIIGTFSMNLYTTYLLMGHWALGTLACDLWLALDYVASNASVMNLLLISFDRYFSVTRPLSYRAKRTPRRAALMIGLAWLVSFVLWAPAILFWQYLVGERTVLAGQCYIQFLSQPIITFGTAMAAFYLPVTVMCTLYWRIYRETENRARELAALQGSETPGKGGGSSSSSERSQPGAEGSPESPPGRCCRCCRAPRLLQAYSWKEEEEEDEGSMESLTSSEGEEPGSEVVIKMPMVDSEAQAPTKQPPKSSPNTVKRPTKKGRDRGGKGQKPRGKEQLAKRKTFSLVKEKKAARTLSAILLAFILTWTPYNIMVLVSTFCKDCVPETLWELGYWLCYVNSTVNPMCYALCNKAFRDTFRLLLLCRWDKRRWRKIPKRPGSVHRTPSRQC
UniProt Q9NUW8, whole entry, looked up: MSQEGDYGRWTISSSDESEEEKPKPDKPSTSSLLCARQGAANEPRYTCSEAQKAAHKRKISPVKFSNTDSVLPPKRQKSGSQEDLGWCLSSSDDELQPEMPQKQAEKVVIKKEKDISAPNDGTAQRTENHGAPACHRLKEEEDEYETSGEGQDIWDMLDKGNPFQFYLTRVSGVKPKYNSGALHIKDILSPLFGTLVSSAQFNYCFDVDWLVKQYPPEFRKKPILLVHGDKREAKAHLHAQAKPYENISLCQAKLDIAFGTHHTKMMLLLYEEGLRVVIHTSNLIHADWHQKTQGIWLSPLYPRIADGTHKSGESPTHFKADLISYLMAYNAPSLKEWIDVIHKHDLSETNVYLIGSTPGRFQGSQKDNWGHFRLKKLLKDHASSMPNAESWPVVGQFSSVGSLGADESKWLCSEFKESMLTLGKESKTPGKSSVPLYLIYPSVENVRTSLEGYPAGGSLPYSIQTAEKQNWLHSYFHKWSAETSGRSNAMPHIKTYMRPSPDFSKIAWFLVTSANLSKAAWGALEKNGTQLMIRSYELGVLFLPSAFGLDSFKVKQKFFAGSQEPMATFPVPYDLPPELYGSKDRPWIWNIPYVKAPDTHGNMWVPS

The nature of assay [2]: qHTS assay for small molecule antagonists of peroxisome proliferator-activated receptor delta signaling (AID 588535; active means well fitted inhibition curve with a large enough effect in the signal ratio, with a control signal flat, not every such curve was filed as active; the % refers to the signal ratio;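 on max response: cells co-treated with a PPAR-delta agonist as stimulator during compound exposure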). The note with it: HEK293T PPARd-UAS-bla, beta-lactamase FRET ratio, 18 h; 460 nm channel.
For assay [3], the target named is Peroxisome proliferator-activated receptor delta (Homo sapiens) (UniProt Q03181). The description is as above. The note with it: HEK293T PPARd-UAS-bla, beta-lactamase FRET ratio, 18 h; at 76.7 µM (top of the series).
Assay [4] can be described thus: qHTS Assay for Lipid Storage Modulators (AID 1519; calls by dose curve; on activity change, negative = inhibition: on the % scale 0 is the no-effect control and ±100 the full control effect). To be noted: Drosophila S3 cells, BODIPY lipid droplet/cell ratio, laser cytometry, cells loaded with oleic acid. In short, it runs like this:
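Cells seeded at 5,000 per well were treated with compounds over a concentration series and loaded with oleic acid (400 uM, as added). Lipid droplet fluorescence (488 nm excitation, 500-530 nm channel) was read by laser-scanning cytometry and normalized to 20 uM Triacsin C.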

The nature of assay [5]: qHTS assay for small molecule agonists of the antioxidant response element (ARE) signaling pathway (AID 651741; active means well fitted activation curve with a large enough effect in the signal ratio; the % refers to the signal ratio; further: % of control where 0% means no effect). An outline of the steps:
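Reporter: beta-lactamase under ARE, stably in HepG2. Exposure: 16 h, 37 C, compounds delivered in DMSO by pin tool after 5 h cell preincubation. Readout: FRET substrate fluorescence after 2 h at RT.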

The nature of assay [6]: HTS Assay for Allosteric Antagonists of the Human D2 Dopamine Receptor: Hit Validation in HTRF (AID 624455).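 Further: stable D1 dopamine receptor cell line scored for blocking the D1 response; potency means the concentration at half of the fitted maximal effect.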 The note with it: Cells stably expressing D1 dopamine receptor, inhibition mode. An outline of the steps: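 Inhibition of the D1-mediated response was measured by HTRF. Cells used were a line stably expressing the D1 dopamine receptor.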
The target in assay [7] is Chromobox protein homolog 1 (Homo sapiens) (UniProt P83916). Briefly: qHTS Validation Assay for Inhibitors of HP1-beta Chromodomain Interactions with Methylated Histone Tails (AID 488953). Further: potency means the concentration at half of the fitted maximal effect; nearly all actives have a fitted effect of over 50% in size. To be noted: HP1-beta chromodomain / methylated histone peptide binding assay. An outline of the steps:
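AlphaScreen proximity signal from streptavidin donor and nickel chelate acceptor beads (final 10 ug/mL) after 30 min dark incubation. Compounds had 30 min at room temperature with preformed complex of 50 nM HP1-beta and 50 nM b-H3(1-18)K9me3 in PBS pH 7.4 with 0.01% Tween-20.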

For assay [8], the target named is Ubiquitin carboxyl-terminal hydrolase 1 (Homo sapiens) (UniProt O94782). Briefly: Inhibitors of USP1/UAF1: Pilot qHTS (AID 504865).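 Further: rhodamine fluorescence freed from ubiquitin-rhodamine substrate followed over time; top concentration of the series differs between compounds; on the % scale 0 is the no-effect control and ±100 the full control effect; nearly all actives have a fitted effect of over 35% in size.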 To be noted: purified USP1/UAF1, Ub-rhodamine cleavage fluorescence. In short, it runs like this:
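Deubiquitinase activity followed as kinetic rhodamine fluorescence release from 150 nM Ub-Rho. 1 nM USP1/UAF1 with compound, after 15 min room-temperature preincubation, in HEPES pH 7.8 buffer containing TCEP, EDTA, BSA and Tween-20.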

In assay [9] the target is Androgen receptor (Homo sapiens) (UniProt P10275). In words: qHTS assay for small molecule antagonists of androgen receptor signaling (AID 588516; active means well fitted curve in the direction sought with a large enough effect in the signal ratio, with a control signal flat, not every such curve was filed as active; the % refers to the signal ratio; further: on the % scale 0 is the no-effect control and ±100 the full control effect). The note with it: AR-UAS-bla HEK293, beta-lactamase ratio, antagonist mode, 16 h; at 76.8 µM (top of the series).
In assay [10] the target is Muscarinic acetylcholine receptor M1 (Rattus norvegicus) (UniProt P08482). In words: qHTS Assay for Antagonists of Acetylcholine Muscarinic M1 Receptor: Kinetic Measurement of Intracellular Calcium Response (AID 943). Further: potency means the concentration at half of the fitted maximal effect; nearly all actives have a fitted effect of over 75% in size. The note with it: M1-expressing cells, kinetic intracellular calcium fluorescence. An outline of the steps: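 Antagonism measured as reduction of carbachol-evoked (EC80, 100 nM final) calcium flux in rat M1-CHO cells after 10 min compound exposure. Fluo-4 signal read kinetically; ratio of maximal to basal fluorescence.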

The target is the same in assay [11]. In words: qHTS Assay for Antagonists of Acetylcholine Muscarinic M1 Receptor: Measurement of IP-One Response (AID 944). Further: potency means the concentration at half of the fitted maximal effect; nearly all actives have a fitted effect of over 75% in size. To be noted: CHO-M1 cells, IP-One HTRF, antagonist mode. An outline of the steps: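 IP1 accumulation measured via TR-FRET between d2-IP1 and Eu-cryptate anti-IP1 antibody after carbachol (200 nM, EC80) stimulation for 30 min; rat M1-transfected CHO cells received compound 10 min before agonist.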

For assay [12], the target named is Tyrosyl-DNA phosphodiesterase 1 (Homo sapiens) (UniProt Q9NUW8). Briefly: Confirmation Assay for Inhibitors of Tyrosyl-DNA Phosphodiesterase (TDP1) (AID 489007). Further: potency means the concentration at half of the fitted maximal effect; nearly all actives have a fitted effect of over 40% in size. To be noted: recombinant human TDP1 enzymatic activity, dose-response. An outline of the steps:
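AlphaScreen assay of tyrosine-FITC cleavage from a biotinylated DNA substrate (15 nM) by E. coli-expressed human Tdp1 (1 nM). Sequence: compound preincubation 15 min, reaction 5 min, bead detection 10 min, all at room temperature. No-enzyme wells give maximum signal.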

Molecules are shown by their SMILES. Several values for one entry are separate records, joined by “and”; a condition that tells them apart may be missing. Equal entries are not always repeated. For part of these data: What follows is the remainder of the data, with few or none of the hits. Records with an inconclusive call do not appear. The entries are a selection whose mix differs from that of the whole data set. Activity calls are given as the source filed them. Unless noted, the call rests on the fitted dose curve; in most records, active means well fitted curve in the direction sought with a large enough effect; inconclusive means small, poorly fitted or top-dose-only effect, or another doubt; inactive means no such curve, though single readings can be large; an effect the other way counts as inactive or inconclusive.

Consider `O=C(O)COc1ccc(Cl)cc1Cl`, for which the activation in [1] is inactive: -13.9% and inactive: -13.6%. Also, in assay [2], the max response was 50% and 52.6%. The activity change, negative = inhibition in [3] was inactive: 13.1% and inactive: 25.4%.

For the compound `C[C@@H](Cc1ccc(O)cc1)NC[C@@H](O)c1cc(O)cc(O)c1`, the activity change, negative = inhibition in assay [4] (at 25.7 µM (top of the series)) is inactive: 0.601%. Also, the max response is -3.2% in assay [4] (measured here: cell count channel max response) and -0.602% in [4] (measured here: lipid channel max response).

As to `CN1CCC[C@H]1c1cccnc1`, in [5], the Potency result is “inactive”.

As to `CCCN1CCC[C@@H](c2cccc(O)c2)C1`, the Potency in assay [6] is active: 0.517 µM.

For the compound `CS(=N)(=O)CC[C@H](N)C(=O)O` (stereo not given in full), in assay [7], the Potency was active: 0.0067 µM.

With `Cn1c(=O)c2[nH]cnc2n(C)c1=O`, the activity change, negative = inhibition in assay [8] (at 54.9 µM (top of the series)) is inactive: 17.1%; in assay [8] (at 114 µM (top of the series)) it was inactive: -7.54% and inactive: -1.44%.

On to `COP(=S)(OC)SCn1nnc2ccccc2c1=O`, for which the activity change, negative = inhibition in [9] is inactive: -2.09%.

For `C[N+]1(C)[C@@H]2CC[C@H]1CC(OC(=O)[C@@H](CO)c1ccccc1)C2` (stereo not given in full), the Potency is active: 11.2 nM and active: 12.6 nM in [10]; active: 0.0025 µM in [11].

Take `C[C@]12CC[C@@H]3c4ccc(OC(=O)N(CCCl)CCCl)cc4CC[C@H]3[C@@H]1CC[C@@H]2O`: the Potency in assay [12] is active: 7.25 µM.

For the origin of these results see PubChem BioAssay (NCATS).
